Experimental data from patent US9700633B2, “Conjugates of water soluble polymer-amino acid oligopeptide-drug, preparation method and use thereof” (JENKEM TECHNOLOGY CO. LTD., TIANJIN BRANCH, priority 2013, dated 2017).

Assays:
[1] = In vitro degradation assay in 0.01 M PBS buffer solution; format: physicochemical; conditions: at 240 min
Description: In order to determine the degradation of the compounds in PBS buffer solution, the compounds DSR1˜6 were dissolved in 0.01 M PBS buffer solution, and were sampled every 30 min.

[2] = test system: human colon cancer HT-29; assay: Xenografted tumor of human colon cancer HT-29 in nude mice; conditions: 45 mg/kg, qw × 3w, iv
[3] = test system: human lung cancer A549; assay: Xenografted tumor of human lung cancer A549 in nude mice; conditions: 45 mg/kg, qw × 3w, iv
[4] = test system: human ovarian cancer SKOV-3; assay: Xenografted tumor of human ovarian cancer SKOV-3 in nude mice; conditions: 45 mg/kg, qw × 3w, iv
[5] = test system: human colon cancer SW-620; assay: Xenografted tumor of human colon cancer SW-620 in nude mice; conditions: 45 mg/kg, qw × 3w, iv
[6] = test system: human colon cancer HCT-116; assay: Xenografted tumor of human colon cancer HCT-116 in nude mice; conditions: 45 mg/kg, qw × 3w, iv

Row | Substance | degradation [1] [%] | Body weight, Beginning [2] [g] | Body weight, End [2] [g] | Body weight, Beginning [3] [g] | Body weight, End [3] [g] | Body weight, Beginning [4] [g] | Body weight, End [4] [g] | Body weight, Beginning [5] [g] | Body weight, End [5] [g] | Body weight, Beginning [6] [g] | Body weight, End [6] [g]
1 | conjugate of Y shape PEG glutamic acid dipeptide valine (40K)-dasatinib [DSR-5] | 20 | – | – | – | – | – | – | – | – | – | –
2 | conjugate of methoxy PEG dipeptide of glutamic acid and glycine (number-average molecular weight of 20,000)-irinotecan [YNR-1] | – | 18.7 | 18.4 | 19.1 | 22.0 | 20.7 | 22.7 | 19.2 | 24.6 | 18.8 | 16.8
